Measurements published in US4766140A, “Method of inhibiting aromatase” (Eli Lilly and Company, priority 1984, dated 1988).
Where a name gives a salt, the structure may show the parent alone.

Molecular target: T1, aromatase (Rattus norvegicus, UniProt P22443)
T1 construct: ovarian microsomes are obtained from rats treated with pregnant mares serum gonadotropin; from tissue; host or cells: ovarian microsomes from rats treated with pregnant mares serum gonadotropin
T1 sequence (P22443 1-508): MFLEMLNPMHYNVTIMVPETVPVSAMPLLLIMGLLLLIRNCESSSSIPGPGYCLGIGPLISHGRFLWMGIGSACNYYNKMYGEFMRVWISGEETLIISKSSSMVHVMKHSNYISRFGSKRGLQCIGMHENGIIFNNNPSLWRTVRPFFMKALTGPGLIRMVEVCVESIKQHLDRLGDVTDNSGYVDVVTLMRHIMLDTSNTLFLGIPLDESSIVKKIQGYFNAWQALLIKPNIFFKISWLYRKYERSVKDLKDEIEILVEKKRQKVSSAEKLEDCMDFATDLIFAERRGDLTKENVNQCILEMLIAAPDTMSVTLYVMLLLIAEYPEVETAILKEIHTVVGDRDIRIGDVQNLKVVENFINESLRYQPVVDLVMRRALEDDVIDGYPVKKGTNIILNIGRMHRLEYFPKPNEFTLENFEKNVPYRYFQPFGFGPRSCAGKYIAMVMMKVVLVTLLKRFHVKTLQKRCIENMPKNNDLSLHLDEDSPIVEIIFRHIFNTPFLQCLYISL
Test: Aromatase inhibition in the rat ovarian microsome assay
Assay type: biochemical
Details: rat ovarian microsomes; substrate (androstenedione) concentration 0.1 μM

EC50 | SMILES
84 nM | OC(CCn1ccnc1)(c1ccccc1)c1ccccc1 [1,1-diphenyl-3-(1-imidazolyl)-1-propanol]
84 nM | Clc1ccc(CCn2ccnc2)cc1Cl [1-(3,4-dichlorophenylethyl)-1H-imidazole, oxalic acid salt]
